Data: PubChem BioAssay AID2058 (Sanford-Burnham Center for Chemical Genomics, 2009)
Only a part is listed here, and it is no random draw. Entries with a potency or affinity are not part of this list. Calls of active or inactive are those of the source.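 The calls were made as follows: active = inhibition of at least 50% with at least 30 cells and total cytoplasm GFP at most 10,000,000; inconclusive = under 30 cells or total GFP of 10,000,000 plus; inactive = the rest.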

Amino acid sequences for entries named in this document (tags omitted).
UniProt Q9HC97, whole entry: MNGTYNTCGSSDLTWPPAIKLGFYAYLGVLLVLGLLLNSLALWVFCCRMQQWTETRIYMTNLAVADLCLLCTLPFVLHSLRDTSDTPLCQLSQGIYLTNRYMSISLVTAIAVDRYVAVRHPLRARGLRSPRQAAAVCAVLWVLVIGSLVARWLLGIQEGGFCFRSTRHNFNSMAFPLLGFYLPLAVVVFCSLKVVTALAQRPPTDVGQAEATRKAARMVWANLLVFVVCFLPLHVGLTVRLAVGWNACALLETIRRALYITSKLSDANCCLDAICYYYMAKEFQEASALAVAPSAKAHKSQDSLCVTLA

These compounds were tested against G-protein coupled receptor 35 (Homo sapiens) (UniProt Q9HC97) (assay: GPR35 antagonists blocking zaprinast-driven arrestin recruitment, primary screen, imaging, U2OS, beta-arrestin-GFP, zaprinast agonist (AID 2058)). Conditions: U2OS GPR35 beta-arrestin-GFP translocation imaging, zaprinast antagonism; at 10 µM; stronger effect = higher value.

Cc1c2c(nc3ccccc13)SC(C(Cl)Cl)C2 (stereo unspecified) was tested. Which inhibition did it give?
Its inhibition is inactive: 11.1%.
